Source: PubChem BioAssay AID1775 (NMMLSC, 2009)
The entries are a selection whose mix differs from that of the whole data set. Calls of active or inactive are those of the source. Rule as the data show it: active = fluorescence above about 47; inactive = the rest.

Assay: green autofluorescence of compounds with avidin beads – biophysical, 488/530 nm, flow cytometry, artefact control, profiling panel (AID 1775)
Settings: compound fluorescence 488/530 nm, at 10 µM, stronger effect = higher value

SMILES | fluorescence (KMESF)
O=[N+]([O-])c1ccc2c(c1)nnn2O | inactive: 3
CCOP1(=S)c2c(C)nn(CCC#N)c2N=C(c2ccccc2F)N1C (stereo not drawn) | inactive: 17
O=P(Nc1nccs1)(c1ccccc1)c1nc2ccccc2s1 (stereo not drawn) | inactive: 17
O=P(Nc1nccs1)(Oc1ccccc1)Oc1ccccc1 | inactive: 9
CS(=O)(=O)c1cc([N+](=O)[O-])c2no[n+]([O-])c2c1 | inactive: 4
Nc1ccccc1[As](=O)(O)c1ccccc1 | inactive: 11
O=C(O)COc1ccc([As](=O)(O)O)cc1[N+](=O)[O-] | inactive: 6
Cc1ccc(NCCc2c([N+](=O)[O-])cc([N+](=O)[O-])cc2[N+](=O)[O-])cc1 | inactive: 3
Nc1cccc2c([As](=O)(O)O)cccc12 | inactive: 1
CCCOP(=S)(Nc1nc(N)cc(=O)[nH]1)OCCC | inactive: 8
COc1cc(C2NCCC3(OCCO3)C2(C)C)cc(OC)c1OC (stereo not drawn) | inactive: 24
CCOP(=O)(Nc1cccc2ccccc12)OCC | inactive: 6
O=C(OC1CN2CCC1CC2)c1ccc(Cl)cc1 (stereo not drawn) | inactive: 6
COc1cc(C(=O)NCC2(N3CCOCC3)CCCCC2)cc(Cl)c1OC(C)C | inactive: 23
O=[As](O)(O)c1cccnc1 | inactive: 8
O=[As](O)(c1cccc(O)c1)c1cccc(O)c1 | inactive: 4
Cc1cccc(OCC(=O)OC2CN3CCC2CC3)c1 (stereo not drawn) | inactive: 33
CC(C)/C=N\N=C(\N)N[N+](=O)[O-] | inactive: 3
CN(C(=O)Cc1ccc(Cl)c(Cl)c1)[C@@H]1CCCC[C@H]1N1CCCC1 | inactive: 6
O=[As](O)(c1ccccc1Br)c1ccccc1Br | inactive: 16

SMILES | fluorescence (KMESF)
O=P1(Nc2ccccn2)COc2ccccc2OC1 | inactive: 16
CCOP(=O)(Nc1ccc(C)cn1)OCC | inactive: 10
Clc1n[nH]nc1-c1nn[nH][15n]1 | inactive: 11
CC(C)(C)C(=O)NC(Sc1ncccn1)C(Cl)(Cl)Cl (stereo not drawn) | inactive: 4
O=P1(Nc2ncccn2)COc2ccccc2OC1 | inactive: 7
Nc1cccc([As](=O)(O)c2ccccc2)c1 | inactive: 9
O=P1(Nc2ccc(Br)cn2)COc2ccccc2OC1 | inactive: 7
Cc1ccc(OCC(=O)OC2CN3CCC2CC3)cc1 (stereo not drawn) | inactive: 5
O=[As](O)(c1cccs1)c1cccs1 | inactive: 8
Cc1nn(-c2ccccc2)c2c1P(=O)(N1CCOCC1)N(C)C(c1ccccc1)=N2 (stereo not drawn) | inactive: 37
CC1CCC(C(C)C)C(OP(=O)(Nc2ccccn2)c2ccccc2)C1 (stereo not drawn) | inactive: 7
CN(C)C1(CNC(=O)c2ccc(S(C)(=O)=O)cc2)CCCCC1 | inactive: 5
O=C(/C=C/c1ccccc1)OC1CN2CCC1CC2 (stereo not drawn) | inactive: 9
CCOC(=O)Nc1cccc([As](=O)(O)O)c1 | inactive: 8
O=P(Nc1ccccn1)(c1cccc2ccccc12)c1cccc2ccccc12 | inactive: 9
Cc1cc(SC(NC=O)C(Cl)(Cl)Cl)ncn1 (stereo not drawn) | inactive: 9
O=[N+]([O-])c1ccc(Nc2ccc(Oc3ccc([N+](=O)[O-])cc3[N+](=O)[O-])cc2)c([N+](=O)[O-])c1 | inactive: 6
CCOC(=O)Nc1ccc([As](=O)(O)O)c(O)c1 | inactive: 6
Cc1cc(SC(NC(=O)c2ccccc2)C(Cl)(Cl)Cl)nc(C(C)C)n1 (stereo not drawn) | inactive: 8
CCOC(=O)c1ccc(NC(=O)C(C)(CCl)SC)cc1 (stereo not drawn) | inactive: 7

SMILES | fluorescence (KMESF)
CCC(C)N(CC(C)C)C(=S)SC(NC(C)=O)C(Cl)(Cl)Cl (stereo not drawn) | inactive: 6
COP1(=S)c2c(C)nn(CCC#N)c2N=C(c2ccc(F)cc2)N1C (stereo not drawn) | inactive: 18
O=C(COc1ccccc1)OC1CN2CCC1CC2 (stereo not drawn) | inactive: 13
COc1ccc(N/C(=N/P(=O)(N2CCOCC2)N2CCOCC2)N2CCOCC2)cc1 | inactive: 25
Cc1c2c(nc3ccccc13)SC(C(Cl)Cl)C2 (stereo not drawn) | inactive: 5
O=C(OC1CN2CCC1CC2)C12CC3CC(CC(C3)C1)C2 (stereo not drawn) | inactive: 17
Cc1cc(=O)[nH]c(N[N+](=O)[O-])n1 | inactive: 26
COc1ccc2nc(NP(=O)(c3ccccc3)c3ccccc3)sc2c1 | inactive: 22
COc1cc(I)ccc1[As](=O)(O)O | inactive: 8
ClCCSc1nnc(-c2cccnc2)o1 | inactive: 8
CC(C)c1ccc(OP(=O)(Nc2ccccn2)Oc2ccccc2F)cc1 (stereo not drawn) | inactive: 3
CCN(CC)C(=S)SC(NC=O)C(Cl)(Cl)Cl (stereo not drawn) | inactive: 18
CC(C)NC(=O)NP(=O)(Oc1ccccc1)Oc1ccccc1 | inactive: 8
O=[N+]([O-])c1cc([N+](=O)[O-])c(-c2ccn[nH]2)s1 | inactive: 3
C[As](=O)(O)c1cccc(C(=O)O)c1 | inactive: 4
O=[As](O)(c1ccc(O)cc1)c1ccccc1O | inactive: 9
Cc1ccc(OP(=O)(Nc2ccc([N+](=O)[O-])cn2)Oc2ccc(C)cc2)cc1 | inactive: 6
Cc1ccc2nc3c(c(C)c2c1)CC(C(Cl)Cl)S3 (stereo not drawn) | inactive: 15
